System: placenta
Test: Placental thyroid hormone quantification (HPLC-MS/MS)
Type: in vivo, mouse (CD-1)
Details: E17.5
Description: Thyroid hormones (T3, triiodothyronine; T4, thyroxine; rT3, reverse triiodothyronine) in placenta were analyzed according to the methods described in Leonetti et al. ([2016]). Briefly, ∼300mg ( 207–526mg ) of two to three pooled placental tissues of same-sex embryos was homogenized and digested for 16 h overnight in PRONASE® Protease (Streptomyces griseus) solution (EMD Millipore Corp.). Each pooled sample of two to three placentas was considered as one biological replicate and included placentas from the same litter when possible. Three biological replicates were used for each treatment group and each sex. Samples were spiked with an antioxidant solution (containing 37.5mg/mL each of citric acid, ascorbic acid, and dithiothreitol) and C13 isotopically labeled internal standards (T4, T3, and rT3), and cold acetone was added to stop the digestion reaction. Samples were vortex mixed and centrifuged three times for 2 min at 10,000 relative centrifugal force (rcf), and the supernatants were collected and combined. Sample pH was adjusted with 6M hydrochloric acid to pH<2 . A liquid–liquid extraction with cyclopentane was performed and the cyclopentane layer discarded; briefly, 1mL of cyclopentane was added to the supernatant and vortexed before the sample was centrifuged for 3 min at 3,000 rcf and the cyclopentane layer discarded, and this was repeated three times. A liquid–liquid extraction with ethyl acetate was performed; briefly, 3mL of ethyl acetate was added to the extract and vortexed before being shaken on a plate shaker for 30 min and centrifuged for 3 min at 3,000 rcf, and the ethyl acetate layer collected; this was repeated three times. Ethyl acetate extracts were dried down to 50μL under a gentle nitrogen stream and resuspended in 1mL of 0.01M hydrochloric acid in 10% methanol. Samples were purified by solid-phase extraction using SampliQ Optimized Polymer Technology (OPT) cartridges ( 3mL , 50mg; Agilent Technologies). Final extracts in 400μL of 1:1 methanol:water were filtered using Whatman® Mini-UniPrep® Syringeless Filters [Polytetrafluoroethylene (PTFE), 0.2μm; GE Healthcare]. Extracts were analyzed on an Agilent high-performance liquid chromatography (HPLC) 1260 with a Synergi™ 50mm×2mm Polar-RP column ( 2.5μm; Phenomenex) coupled to an Agilent model 6460 tandem mass spectrometer with electrospray ionization (HPLC-MS/MS-ESI). Mobile phases consisted of 10 mM formic acid in methanol and 10 mM formic acid in water. Laboratory processing blanks were extracted alongside the placental tissues to monitor background levels. No TH were detected in the lab blanks. Method detection limits (MDLs) were calculated using a signal-to-noise value of 3 for each analyte (T3, T4, and rT3). Values were normalized to the wet weight of placenta extracted for a final value of nanogram hormone/gram placenta. Values below the MDL (T4, 0.84 ng/g; T3, 0.42 ng/g; rT3, 0.67 ng/g ) were imputed using the calculation MDL×0.5 , and values lacking a quantifiable peak on mass spectrometry were excluded from the analysis.
TH concentrations in the placenta were quantified, and the ratios of T3:T4 and rT3:T4 in E17.5 placentas were assessed to evaluate potential disruption of peripheral TH control (e.g., impacts on thyroid deiodinase activity). Each end point was analyzed for sex×treatment interaction or for an overall effect of sex. Placenta TH were analyzed by analysis of variance using lme4 ([Bates et al. 2014]). Simultaneous tests for general linear hypotheses were corrected for multiple comparisons of means using Tukey contrasts in the package multcomp ([Hothorn et al. 2009]). Placental TH and their ratios were initially analyzed with embryo sex as an interaction term in the model, with the dose group as the predictor variable. Inclusion of a sex interaction or sex covariate in the final model was examined in a stepwise fashion. Internal dosimetry data were analyzed by analysis of variance. […]

## N.O=C(O)C(F)(OC(F)(F)C(F)(F)C(F)(F)F)C(F)(F)F (centres unmarked) [GenX, ammonium 2,3,3,3-tetrafluoro-2-(heptafluoropropoxy)propanoate]
2 mg/kg/d
  Placental T3:T4 ratio: 0.05±0.01 [5]
  Placental rT3:T4 ratio: 0.32±0.12 [6]
2 mg/kg/d, attenuated after post hoc correction
  Placental T4 increase relative to controls: 38%
10 mg/kg/d
  Placental T3:T4 ratio: 0.03±0.01 [6]
  Placental T4 increase relative to controls: 60%
  Placental rT3:T4 ratio: 0.27±0.08 [6]
female, 2 mg/kg/d
  Placental T3:T4 ratio: 0.053 ± 0.02
  Placental rT3:T4 ratio: 0.409 ± 0.08
female, 10 mg/kg/d
  Placental T3:T4 ratio: 0.032 ± 0.01
  Placental rT3:T4 ratio: 0.302 ± 0.09
male, 2 mg/kg/d
  Placental T3:T4 ratio: 0.044 ± 0.01
  Placental rT3:T4 ratio: 0.225 ± 0.08
male, 10 mg/kg/d
  Placental T3:T4 ratio: 0.035 ± 0.004
  Placental rT3:T4 ratio: 0.231 ± 0.04

Reference: publication PMC7064328, “Evaluation of Maternal, Embryo, and Placental Effects in CD-1 Mice following Gestational Exposure to Perfluorooctanoic Acid (PFOA) or Hexafluoropropylene Oxide Dimer Acid (HFPO-DA or GenX)” (Environmental Health Perspectives, 2020)
